# Values of other authors as cited in US20100260680A1, “NOVEL BONE MASS INCREASING AGENT” (ORIENTAL YEAST CO., LTD., priority 2007, published 2010).
# Settings: manufacturer's instructions; cited from earlier work
molecule,measurement,value
"BMP-2 expressed in CHO cells: BMP-2 (R&D) produced by CHO cells (protein, UniProt P12643 283-396, looked up, expressed in CHO cells, BMP-2 (R&D) produced by CHO cells) Bone morphogenetic protein 2: QAKHKQRKRLKSSCKRHPLYVDFSDVGWNDWIVAPPGYHAFYCHGECPFPLADHLNSTNHAIVQTLVNSVNSKIPKACCVPTELSAISMLYLDENEKVVLKNYQDMVVEGCGCR",activity relative to BMP-2 produced by Escherichia coli,approximately 10 times
